One compound from patent US20210154272A1, “NEUROMODULATING COMPOSITIONS AND RELATED THERAPEUTIC METHODS FOR THE TREATMENT OF CANCER BY MODULATING AN ANTI-CANCER IMMUNE RESPONSE” (Flagship Pioneering Innovations V, Inc., priority 2016, published 2021) can be followed below.

One test deals with primary human T cells. Briefly: T cell activation and cytokine secretion assay (LEGENDplex). The class given is cell-based. Here is the method:
Peripheral blood mononuclear cells (PBMCs) were isolated from whole blood by ficoll density separation. Briefly, blood was diluted 1:2 with 0.5 mM EDTA solution in PBS, loaded onto a Ficoll-filled Leucosep tube (Greiner Bio-One), and centrifuged for 20 minutes at 1000×g. After centrifugation, the leukocyte/PBMC layer on top of the separation medium was collected and sequentially washed three times with 0.5 mM EDTA solution in PBS. T cells were isolated from PBMCs using magnetic bead-based separation following vendor specification, e.g., Biolegend MojoSort Human CD4/CD8 Naïve T Cell Isolation Kit protocol. In brief, the PBMCs were labeled with biotinylated antibodies against cell surface receptors for cells not in the population of interest. The labeled cells are then captured by streptavidin-coated magnetic beads and removed by magnetic incubation. The uncaptured cells that flow through the magnetic separation are predominantly comprised of the population of interest, in this instance CD3+ T cells. T cells were stained with a 5 μM solution of Tag-it Violet™ dye (BioLegend) for 20 minutes protected from light. […] Supernatants were collected at 24, 48, and 72 hrs and cytokine secretion was analyzed by flow cytometry using a LEGENDplex assay (BioLegend). […] The beads were then stained and the captured cytokine composition assessed by flow cytometry.

For test [1], the system named is T cells in the lymph node. Nature of the test: Lymph node remodeling by hock injection, flow cytometry of lymph node cells. On the set-up: species or system C57BL/6J mice. The note with it: mouse, in vivo. Here is the method:
C57BL/6J mice were injected in each hock with 50 μL of the immunostimulant CpG ODN (0.1 nmol), 504 dopaminergic agonist quinpirole (0.1 nmol) or with 254 dopaminergic antagonist (Haloperidol −48.5 nmol) followed by 25 μL quinpirole (0.1 nmol). 24 hours after hock injection, brachial lymph nodes (LN) were harvested in culture medium (RPMI+10% FBS). LNs were transferred to 24-well tissue culture plates containing 0.5 mL LN digestion buffer (RPMI, 2% FBS, collagenase D (3.3 mg/mL), and DNAse I (40 ug/mL)). LN capsules were manually opened with two syringe (26G) needles and the LNs were incubated in digestion buffer for 15 minutes. Digested LNs were filtered with a 40 μNA cell strainer and tissues were smashed with the plunger of a 5 mL syringe. Collected cells were washed in culture medium and plated for assays. Total number of viable cells were assessed by staining with viability dye eFluor 780 (eBioscience). Surface markers of various immune cell subsets were analyzed by staining the cells with antibodies for cell identity (CD3, CD4, CD8, CD19), for the inflammatory marker CD69, and the migratory marker CCR7. The cells were then assayed by flow cytometry.
In general terms: A flow cytometer gives signals particle by particle.

With `CCCN1CCC[C@@H]2Cc3n[nH]cc3C[C@H]21` [quinpirole], in the test with primary human T cells, the “production of the pro-survival cytokine IL-2” value was “increase”. Moreover, the “number of migratory phenotype CCR7+ T cells in the lymph node” value in test [1] was “increased”.
